System: STING
Assay: SEAP reporter assay in B16-Blue ISG-KO-STING cells
Format: cell-based, murine
Settings: FIG. 26

B1: IFN-β: interferon-β, cytokine used to validate the cell lines (protein, UniProt P01574 22-187, looked up)
Interferon beta: MSYNLLGFLQRSSNFQCQKLLWQLNGRLEYCLKDRMNFDIPEEIKQLQQFQKEDAALTIYEMLQNIFAIFRQDSSSTGWNETIVENLLANVYHQINHLKTVLEEKLEKEDFTRGKLMSSLHLKRYYGRILHYLKAKEYSHCAWTIVRVEILRNFYFINRLTGYLRN
signal (interferon-response element readout): not be affected by deletion of the STING gene

From patent US20190233825A1, “METHODS OF MODULATING CYTOSOLIC DNA SURVEILLANCE MOLECULES” (BAYER ANIMAL HEALTH GMBH, priority 2015, published 2019)
